We go through one substance from patent US10660991B2, “Polymeric DHA-containing biodegradable compositions and surgical barrier devices made thereof” (CORNELL UNIVERSITY, priority 2016, dated 2020).

A short description of the data set: In vivo degradation of CC-DHA shields in a murine model. To be noted: mouse.

For “chemically crosslinked dihydroxyacetone-based hydrogel [CC-DHA]”, the “degradation rate in vivo versus in vitro” value was “degraded more rapidly in vivo than in vitro”.
